Patent US9694016B2 (Novartis AG, priority 2013, dated 2017)

The chains behind the UniProt entries cited, without tags or fusion partners.
UniProt P04049, whole entry Y340E/Y341E: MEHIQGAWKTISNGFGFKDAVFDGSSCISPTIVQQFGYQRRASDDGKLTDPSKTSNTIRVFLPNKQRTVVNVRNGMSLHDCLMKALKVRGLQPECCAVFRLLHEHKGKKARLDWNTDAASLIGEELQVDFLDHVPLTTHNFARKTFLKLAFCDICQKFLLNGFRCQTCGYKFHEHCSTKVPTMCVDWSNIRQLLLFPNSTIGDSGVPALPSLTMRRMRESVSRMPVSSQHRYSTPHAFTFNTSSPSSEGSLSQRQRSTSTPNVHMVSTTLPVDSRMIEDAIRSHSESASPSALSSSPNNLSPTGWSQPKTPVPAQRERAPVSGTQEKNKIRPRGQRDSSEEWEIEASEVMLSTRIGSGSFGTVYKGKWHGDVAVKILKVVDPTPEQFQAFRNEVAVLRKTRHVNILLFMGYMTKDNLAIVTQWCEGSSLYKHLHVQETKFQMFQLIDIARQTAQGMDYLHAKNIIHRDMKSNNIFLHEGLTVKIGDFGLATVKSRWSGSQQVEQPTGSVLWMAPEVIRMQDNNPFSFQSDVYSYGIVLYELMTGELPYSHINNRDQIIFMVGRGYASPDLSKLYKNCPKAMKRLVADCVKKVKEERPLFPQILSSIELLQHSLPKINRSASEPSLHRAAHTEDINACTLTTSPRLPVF

Molecular target: C-Raf FL (full-length C-Raf protein, Y340E and Y341E activating mutations) (Homo sapiens (Human), UniProt P04049, Y340E/Y341E)
Assay type: biochemical
Conditions: AlphaScreen, 60 min pre-incubation, reaction 1 hour at room temperature; read-out: c-Raf FL IC-50

Row | SMILES | IC50
1 | Cc1ccc(NC(=O)c2cncc(C(F)(F)F)c2)cc1-c1cc(N2CCOCC2)c(=O)n(C)c1 [Example 904, N-(4-methyl-3-(1-methyl-5-morpholino-6-oxo-1,6-dihydropyridin-3-yl)phenyl)-5-(trifluoromethyl)nicotinamide] | 470 pM
2 | Cc1ccc(NC(=O)c2cc(C(C)(F)F)ccn2)cc1-c1cc(N2CCOCC2)c(=O)n(C)c1 [Example 905, 4-(1,1-difluoroethyl)-N-(4-methyl-3-(1-methyl-5-morpholino-6-oxo-1,6-dihydropyridin-3-yl)phenyl)picolinamide] | 580 pM
3 | Cc1ccc(NC(=O)c2cc(C(C)(C)F)ccn2)cc1-c1cc(N2CCOCC2)c(=O)n(C)c1 [Example 907, 4-(2-fluoropropan-2-yl)-N-(4-methyl-3-(1-methyl-5-morpholino-6-oxo-1,6-dihydropyridin-3-yl)phenyl)picolinamide] | 940 pM
4 | Cc1ccc(NC(=O)c2cc(C(C)(C)N)cc(C(F)(F)F)c2)cc1-c1cc(N2CCOCC2)c(=O)n(C)c1 [Example 908, 3-(2-aminopropan-2-yl)-N-(4-methyl-3-(1-methyl-5-morpholino-6-oxo-1,6-dihydropyridin-3-yl)phenyl)-5-(trifluoromethyl)benzamide] | 2530 pM
5 | Cc1ccc(NC(=O)c2cncc(C(F)(F)F)c2)cc1-c1cc(N2CCOCC2)c(=O)n(C)n1 [Example 909, N-(4-methyl-3-(1-methyl-5-morpholino-6-oxo-1,6-dihydropyridazin-3-yl)phenyl)-5-(trifluoromethyl)nicotinamide] | 320 pM
6 | Cc1ccc(NC(=O)c2cc(C(C)(C)C#N)ccn2)cc1-c1cc(N2CCOCC2)c(=O)n(C)n1 [Example 910, 4-(2-cyanopropan-2-yl)-N-(4-methyl-3-(1-methyl-5-morpholino-6-oxo-1,6-dihydropyridazin-3-yl)phenyl)picolinamide] | 1020 pM
7 | Cc1ncc(NC(=O)c2ccnc(C(C)(C)F)c2)cc1-c1cc(N2CCOCC2)c(OC(C)C)nn1 [Example 911, 2-(2-fluoropropan-2-yl)-N-(5-(6-isopropoxy-5-morpholinopyridazin-3-yl)-6-methylpyridin-3-yl)isonicotinamide] | 1200 pM
8 | Cc1ncc(NC(=O)c2ccnc(C(C)(F)F)c2)cc1-c1cc(N2CCOCC2)c(OC(C)C)nn1 [Example 912, 2-(1,1-difluoroethyl)-N-(5-(6-isopropoxy-5-morpholinopyridazin-3-yl)-6-methylpyridin-3-yl)isonicotinamide] | 650 pM
9 | Cc1ncc(NC(=O)c2ccnc(C(F)F)c2)cc1-c1cc(N2CCOCC2)c(OC(C)C)nn1 [Example 913, 2-(difluoromethyl)-N-(5-(6-isopropoxy-5-morpholinopyridazin-3-yl)-6-methylpyridin-3-yl)isonicotinamide] | 690 pM
10 | CCC(F)(F)c1cc(C(=O)Nc2cnc(C)c(-c3cc(N4CCOCC4)c(OCC(F)F)nn3)c2)ccn1 [Example 914, N-(5-(6-(2,2-difluoroethoxy)-5-morpholinopyridazin-3-yl)-6-methylpyridin-3-yl)-2-(1,1-difluoropropyl)isonicotinamide] | 700 pM
11 | Cc1ncc(NC(=O)c2ccnc(C(C)(F)F)c2)cc1-c1cc(N2CCOCC2)c(OCC(F)F)nn1 [Example 915, N-(5-(6-(2,2-difluoroethoxy)-5-morpholinopyridazin-3-yl)-6-methylpyridin-3-yl)-2-(1,1-difluoroethyl)isonicotinamide] | 450 pM
12 | Cc1ncc(NC(=O)c2cc(C(F)(F)F)ccn2)cc1-c1cc(N2CCOCC2)c(OCC(F)F)nn1 [Example 916, N-(5-(6-(2,2-difluoroethoxy)-5-morpholinopyridazin-3-yl)-6-methylpyridin-3-yl)-4-(trifluoromethyl)picolinamide] | 390 pM
13 | Cc1ncc(NC(=O)c2cncc(C(F)(F)F)c2)cc1-c1cc(N2CCOCC2)c(OCC(F)F)nn1 [Example 917, N-(5-(6-(2,2-difluoroethoxy)-5-morpholinopyridazin-3-yl)-6-methylpyridin-3-yl)-5-(trifluoromethyl)nicotinamide] | 910 pM
14 | Cc1ncc(NC(=O)c2cccc(C(F)(F)F)c2)cc1-c1cc(N2CCOCC2)c(OCC(F)F)nn1 [Example 918, N-(5-(6-(2,2-difluoroethoxy)-5-morpholinopyridazin-3-yl)-6-methylpyridin-3-yl)-3-(trifluoromethyl)benzamide] | 370 pM
15 | Cc1ncc(NC(=O)c2cccc(C(F)(F)F)c2)cc1-c1cc(N2CCOCC2)c(S(C)(=O)=O)nn1 [Example 919, N-(6-methyl-5-(6-(methylsulfonyl)-5-morpholinopyridazin-3-yl)pyridin-3-yl)-3-(trifluoromethyl)benzamide] | 880 pM
16 | Cc1ncc(NC(=O)c2ccnc(C(C)(F)F)c2)cc1-c1cc(N2CCOCC2)c(S(C)(=O)=O)nn1 [Example 920, 2-(1,1-difluoroethyl)-N-(6-methyl-5-(6-(methylsulfonyl)-5-morpholinopyridazin-3-yl)pyridin-3-yl)isonicotinamide] | 1990 pM
17 | Cc1ncc(NC(=O)c2ccnc(C(F)(F)F)c2)cc1-c1cc(N2CCOCC2)c(S(C)(=O)=O)nn1 [Example 921, N-(6-methyl-5-(6-(methylsulfonyl)-5-morpholinopyridazin-3-yl)pyridin-3-yl)-2-(trifluoromethyl)isonicotinamide] | 1820 pM

Row | SMILES | IC50
18 | Cc1ncc(NC(=O)c2cc(C(F)(F)F)ccn2)cc1-c1cc(N2CCOCC2)c(S(C)(=O)=O)nn1 [Example 923, N-(6-methyl-5-(6-(methylsulfonyl)-5-morpholinopyridazin-3-yl)pyridin-3-yl)-4-(trifluoromethyl)picolinamide] | 1070 pM
19 | Cc1ncc(NC(=O)c2ccnc(C(C)(C)C#N)c2)cc1-c1cc(N2CCOCC2)c(S(C)(=O)=O)nn1 [Example 924, 2-(2-cyanopropan-2-yl)-N-(6-methyl-5-(6-(methylsulfonyl)-5-morpholinopyridazin-3-yl)pyridin-3-yl)isonicotinamide] | 11000 pM
20 | CCC(F)(F)c1cc(C(=O)Nc2cnc(C)c(-c3cc(N4CCOCC4)c(S(C)(=O)=O)nn3)c2)ccn1 [Example 925, 2-(1,1-difluoropropyl)-N-(6-methyl-5-(6-(methylsulfonyl)-5-morpholinopyridazin-3-yl)pyridin-3-yl)isonicotinamide] | 2230 pM
21 | CCC(F)(F)c1cc(C(=O)Nc2ccc(C)c(-c3cc(N4CCOCC4)c(S(C)(=O)=O)nn3)c2)ccn1 [Example 926, 2-(1,1-difluoropropyl)-N-(4-methyl-3-(6-(methylsulfonyl)-5-morpholinopyridazin-3-yl)phenyl)isonicotinamide] | 470 pM
22 | Cc1ccc(NC(=O)c2ccnc(C(C)(C)F)c2)cc1-c1cc(N2CCOCC2)c(S(C)(=O)=O)nn1 [Example 928, 2-(2-fluoropropan-2-yl)-N-(4-methyl-3-(6-(methylsulfonyl)-5-morpholinopyridazin-3-yl)phenyl)isonicotinamide] | 550 pM
23 | Cc1ccc(NC(=O)c2ccnc(C(C)(F)F)c2)cc1-c1cc(N2CCOCC2)c(S(C)(=O)=O)nn1 [Example 929, 2-(1,1-difluoroethyl)-N-(4-methyl-3-(6-(methylsulfonyl)-5-morpholinopyridazin-3-yl)phenyl)isonicotinamide] | 330 pM
24 | Cc1ccc(NC(=O)c2ccnc(C(F)(F)F)c2)cc1-c1cc(N2CCOCC2)c(S(C)(=O)=O)nn1 [Example 930] | 310 pM
25 | Cc1ccc(NC(=O)c2ccnc(C(C)(C)C#N)c2)cc1-c1cc(N2CCOCC2)c(S(C)(=O)=O)nn1 [Example 931, 2-(2-cyanopropan-2-yl)-N-(4-methyl-3-(6-(methylsulfonyl)-5-morpholinopyridazin-3-yl)phenyl)isonicotinamide] | 770 pM
26 | Cc1ccc(NC(=O)c2ccnc(C(C)(C)O)c2)cc1-c1cc(N2CCOCC2)c(S(C)(=O)=O)nn1 [Example 932, 2-(2-hydroxypropan-2-yl)-N-(4-methyl-3-(6-(methylsulfonyl)-5-morpholinopyridazin-3-yl)phenyl)isonicotinamide] | 1830 pM
27 | Cc1ccc(NC(=O)c2cc(C(F)(F)F)ccn2)cc1-c1cc(N2CCOCC2)c(S(C)(=O)=O)nn1 [Example 933, N-(4-methyl-3-(6-(methylsulfonyl)-5-morpholinopyridazin-3-yl)phenyl)-4-(trifluoromethyl)picolinamide] | 220 pM
28 | COc1ncc(-c2cc(NC(=O)c3cccc(C(F)(F)F)c3)nnc2C)cc1N1CCOCC1 [Example 934, N-(5-(6-methoxy-5-morpholinopyridin-3-yl)-6-methylpyridazin-3-yl)-3-(trifluoromethyl)benzamide] | 1200 pM
29 | Cc1ncc(NC(=O)c2cncc(C(F)(F)F)c2)cc1-c1cnc(OCC(F)F)c(N2CCOCC2)c1 [Example 935, N-(6′-(2,2-difluoroethoxy)-2-methyl-5′-morpholino-[3,3′-bipyridin]-5-yl)-5-(trifluoromethyl)nicotinamide] | 580 pM
30 | Cc1ncc(NC(=O)c2cnnc(C3(C#N)CC3)c2)cc1-c1cnc(OCC(F)F)c(N2CCOCC2)c1 [Example 936, 6-(1-cyanocyclopropyl)-N-(6′-(2,2-difluoroethoxy)-2-methyl-5′-morpholino-[3,3′-bipyridin]-5-yl)pyridazine-4-carboxamide] | 1690 pM
31 | Cc1ncc(NC(=O)c2cccc(S(C)(=O)=O)c2)cc1-c1cnc(OC2CCOCC2)c(N2CCOCC2)c1 [Example 937, N-(2-methyl-5′-morpholino-6′-((tetrahydro-2H-pyran-4-yl)oxy)-[3,3′-bipyridin]-5-yl)-3-(methylsulfonyl)benzamide] | 1970 pM
32 | Cc1ncc(NC(=O)c2ccnc(C(C)(C)O)c2)cc1-c1cnc(OC2CCOCC2)c(N2CCOCC2)c1 [Example 939, 2-(2-hydroxypropan-2-yl)-N-(2-methyl-5′-morpholino-6′-((tetrahydro-2H-pyran-4-yl)oxy)-[3,3′-bipyridin]-5-yl)isonicotinamide] | 6840 pM
33 | Cc1ncc(NC(=O)c2ccnc(C3CC3)c2)cc1-c1cnc(OC2CCOCC2)c(N2CCOCC2)c1 [Example 941, 2-cyclopropyl-N-(2-methyl-5′-morpholino-6′-((tetrahydro-2H-pyran-4-yl)oxy)-[3,3′-bipyridin]-5-yl)isonicotinamide] | 670 pM
